Sequences of proteins named here, by UniProt entry; tags and fusion partners are left off. A change or cut given only in a name is not applied to a line headed by its entry.
UniProt P61169, whole entry: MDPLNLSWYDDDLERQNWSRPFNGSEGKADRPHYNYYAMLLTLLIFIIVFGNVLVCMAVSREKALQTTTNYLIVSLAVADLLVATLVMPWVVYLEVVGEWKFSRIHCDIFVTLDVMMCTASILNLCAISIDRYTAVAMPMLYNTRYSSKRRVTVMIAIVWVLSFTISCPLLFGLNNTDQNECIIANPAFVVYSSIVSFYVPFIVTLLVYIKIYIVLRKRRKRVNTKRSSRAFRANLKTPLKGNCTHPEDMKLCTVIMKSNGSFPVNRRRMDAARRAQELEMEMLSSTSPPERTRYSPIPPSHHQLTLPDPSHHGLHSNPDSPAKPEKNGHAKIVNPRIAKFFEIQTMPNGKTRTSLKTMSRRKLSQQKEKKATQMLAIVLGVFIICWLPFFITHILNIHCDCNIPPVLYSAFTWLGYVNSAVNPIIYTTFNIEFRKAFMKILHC

According to US9034877B2 (Wayne State University, priority 2009, dated 2015):

Target: T1, D2L receptor (Rattus norvegicus, UniProt P61169)
T1 construct: expressed in transfected cells
Experiment: Inhibition of [3H]spiperone binding to cloned D2L receptors expressed in HEK-293 cells
Conditions: rat D2L in HEK-293 cells, read-out: Ki, D2 receptor

CCCN(CCN1CCN(c2ccnc3c(O)cccc23)CC1)C1CCc2ccc(O)cc2C1 (stereo not shown) [Compound 19a] showed a Ki of 15.9 nM.
